From US7390795B2, “Treatment and prevention of tissue damage” (Pentraxin Therapeutics Limited, priority 2000, dated 2008)

Target: T1, C-reactive protein (CRP) (Homo sapiens, UniProt P02741)
T1 construct: from tissue; host or cells: Human material
T1 sequence (P02741 19-224): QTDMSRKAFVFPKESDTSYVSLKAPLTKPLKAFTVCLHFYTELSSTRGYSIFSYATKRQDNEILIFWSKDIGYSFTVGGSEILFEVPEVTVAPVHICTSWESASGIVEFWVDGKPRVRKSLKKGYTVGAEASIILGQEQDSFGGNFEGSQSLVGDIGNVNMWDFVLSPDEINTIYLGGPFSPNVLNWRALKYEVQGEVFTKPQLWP
Experiment: Inhibition of binding of 125I radiolabelled CRP to enzyme modified low density lipoprotein immobilized in microtitre plates
Experimental: Screening for Inhibitors of Binding of ^125I Radiolabelled CRP to Enzyme Modified Low Density Lipoprotein Immobilized in Microtitre Plates. […] However, likely critical ligands of importance in vivo in the pathogenesis of atherothrombosis, are modified forms of low density lipoprotein. […] All wells were then washed three times with 200 μl volumes of PBS before blocking by incubation for 1 h at room temperature with 100 μl per well of 0.2 m Tris pH 8.0. The wells were then washed again 3 times with 200 μl volumes of PBS and finally emptied before adding to each one 100 μl volumes of the following reagents.

C[N+](C)(C)CCOP(=O)([O-])O [Phosphocholine, phosphocholine]
Percent inhibition of binding of radiolabelled CRP to immobilized enzyme modified low density lipoprotein (compound molarity 1 μM): 0 | Percent inhibition of binding of radiolabelled CRP to immobilized enzyme modified low density lipoprotein (compound molarity 10 μM): 46 | Percent inhibition of binding of radiolabelled CRP to immobilized enzyme modified low density lipoprotein (compound molarity 100 μM): 93 | Percent inhibition of binding of radiolabelled CRP to immobilized enzyme modified low density lipoprotein (compound molarity 1 mM): 94 | Percent inhibition of binding of radiolabelled CRP to immobilized enzyme modified low density lipoprotein (compound molarity 10 mM): 95
